Ab-14 light chain CDR variants: yeast mating affinities

Values reported by Li et al. 2023, doi:10.1038/s41467-023-39022-2 (FLAb copy).

Binding partner: SARS-CoV-2 spike HR2 peptide, sequence PDVDLGDISGINAS.

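This is the validation round: designs drawn from the data on random variants, tested in the same kind of assay. Several design methods are mixed in this list. In AlphaSeq, yeast of one mating type display the scFv and yeast of the other type display the target. After mating in shaken culture at 30 °C for 16 h, diploids were selected and their barcode pairs sequenced. The ratio of observed to expected reads was calibrated, replicate by replicate, on BCL2-family standards whose Kd was known from biolayer interferometry. Each pool was mated in six replicate cultures.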

Each scFv is VH, a 15-residue (Gly4Ser)3 linker, VL, as in the parent Ab-14, and differs from it in the CDRs of the light chain only.
VH: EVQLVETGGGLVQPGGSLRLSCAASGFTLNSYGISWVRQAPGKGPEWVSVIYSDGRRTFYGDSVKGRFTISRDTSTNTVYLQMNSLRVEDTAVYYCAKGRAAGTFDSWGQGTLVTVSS
VL: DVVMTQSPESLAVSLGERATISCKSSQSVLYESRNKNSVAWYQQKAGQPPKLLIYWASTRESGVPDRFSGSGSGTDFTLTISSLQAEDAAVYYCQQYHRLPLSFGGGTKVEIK

Each variant is given by its three light chain CDRs, as the data file delimits them; those of the parent are KSSQSVLYESRNKNSVA, WASTRES, QQYHRLPLS.
Affinities are written as log10 Kd with Kd in nM; a lower number is a better binder.
The mean shown is taken over the replicates in which the pair was detected.
"ND" marks a missing value. The strain was present, yet no cells mated with the target were sequenced in that replicate, which points to weak or no binding.

CDR-L1 | CDR-L2 | CDR-L3 | log10 Kd, replicates | mean log10 Kd (nM) | signal with controls
KSGQHVLYESRNKNSVA | QASTRES | QQYHRLPLS | 0.47 / 0.12 / -0.33 / -0.15 / -0.14 / 0.09 | 0.01 | 1 of 18 (3.40)
KVSQSVLYESRNKNSVA | YASTRES | QQYHRLPLS | 0.10 / -0.05 / 0.05 / 0.12 / -0.13 / 0.44 | 0.09 | 1 of 18 (3.05)
SLEAFEYQIMKDLNNIA | NTQTRAN | QQYMRLPFM | -0.04 / -0.57 / 0.07 / -0.40 / -0.28 / 0.29 | -0.16 | 0 of 18
KVSPSVLAESRNKNSVA | QASTRES | EQYHRLPLS | -0.21 / -0.51 / -0.65 / -0.54 / -0.13 / 0.03 | -0.34 | 1 of 18 (1.70)
KVEQSNDYESRNKNSVA | NASQRLK | QQYHRLPLS | 0.13 / -0.24 / -0.13 / -0.35 / -0.10 / -0.05 | -0.12 | 1 of 18 (2.76)
KSMQSEPYEDRNKNSVA | EASTRCS | QQYHRLPLS | 0.46 / 0.51 / 0.24 / 0.24 / 0.34 / 0.53 | 0.39 | 0 of 18
KLVGSWLYESRNKNAVA | RASQRCS | QQYHRLPLS | 1.17 / 0.87 / 1.25 / 0.49 / 1.23 / 1.79 | 1.13 | 0 of 18
KVSGSQLYESRNKNSVA | NASTRES | QQYHRLPLS | -0.40 / -0.34 / -0.49 / -0.55 / -0.68 / -0.33 | -0.46 | 1 of 18 (2.12)
KSSQSVLYESRNKNSVA | WASTRMS | QQYNRLPLS | 0.71 / 0.89 / 1.52 / 1.53 / 1.71 / 1.09 | 1.24 | 0 of 18
KLEQSMLYESRNKNSVA | NASTRES | QQYHRLPLS | -0.19 / -0.16 / -0.38 / -0.42 / -0.29 / -0.14 | -0.26 | 1 of 18 (2.49)
AISFEMESPHNHSNNVA | SESKLCS | QQYFTLPLS | 0.93 / 0.59 / 0.64 / 0.85 / 1.07 / 1.37 | 0.91 | 0 of 18
KLDQGELYESRNKNSVA | GASTRES | QQYHRLPLS | -0.14 / -0.21 / -0.35 / -0.32 / -0.23 / -0.28 | -0.25 | 0 of 18
KSSLSYLYESRNKNNVA | WASTREN | QQYHRLPES | ND / ND / ND / ND / 1.83 / ND | 1.83 | 0 of 18
ILSQSVLYESRNKNSVA | NASTRMS | QQYHRLPLS | -0.21 / -0.33 / -0.33 / -0.49 / -0.33 / 0.04 | -0.28 | 0 of 18
KSSQSVLYEMRNKNSVA | AASTRES | QQYARLPLS | 0.21 / 0.24 / 0.07 / -0.15 / -0.07 / 0.18 | 0.08 | 4 of 18 (2.91)
TLSDVMHMESRNVNSVA | DLVKRES | QQYHRLPLS | 1.04 / 0.70 / 0.15 / -0.03 / 0.44 / 0.32 | 0.44 | 1 of 18 (1.61)
KLSQSQLYESRNSNNVA | NASTRES | QQYHRLPLS | -0.28 / -0.33 / -0.49 / -0.53 / -0.32 / -0.13 | -0.35 | 2 of 18 (2.87)
MLSGVLHMLGQKKNSIA | DLVMRAN | QQYHRLPLM | 0.96 / 1.98 / 3.08 / 2.14 / 0.94 / 2.78 | 1.98 | 1 of 18 (1.56)
KISWSVLFESRNKNSVA | DASTRSS | QQYHRLPLS | 0.07 / -0.12 / -0.08 / -0.21 / -0.04 / -0.02 | -0.07 | 2 of 18 (2.48)
HMSQVTMYGYWTKNSVA | QTSTREE | QQYDRLPLS | 0.75 / 0.89 / 0.54 / 0.50 / 0.72 / 0.98 | 0.73 | 0 of 18
KLSMLHDYESRNKNSVA | QASTRED | QQYHRLPLS | 0.36 / 0.07 / 0.34 / -0.01 / 0.14 / 0.44 | 0.22 | 1 of 18 (1.99)
KLSWSVNFFGHAINSVA | EMETREN | QQYDRLPLS | 1.05 / 1.09 / 0.83 / 1.72 / 1.67 / 1.56 | 1.32 | 0 of 18
KQQFSSGMESRNKNSVA | EASTRCS | QQYHRLPLS | 0.21 / 0.01 / -0.06 / 0.27 / -0.13 / 0.07 | 0.06 | 1 of 18 (1.69)
KLSQSVLYESRNKNSVA | NASQREQ | QDYHRLPLS | -0.32 / -0.24 / -0.46 / -0.48 / -0.36 / -0.22 | -0.35 | 0 of 18
LLSGMVEEQITRQQNIA | EGEFRDM | QQYSRLPLS | 1.74 / 1.12 / 0.61 / 0.93 / 0.70 / 0.60 | 0.95 | 0 of 18
KSLQSELYESRDKNSVA | HASTRED | QQYHRLPLS | 0.50 / 1.03 / 0.63 / 0.98 / 0.17 / 0.45 | 0.63 | 0 of 18
KISMMINMTFEHSNNVA | EMATREK | QQYNRLPLS | 0.95 / 0.51 / 0.42 / 0.60 / 0.63 / 1.29 | 0.73 | 0 of 18
KLQQSWLYESRNKNSVA | NASYRLS | QQYHRLPLS | 0.51 / 0.51 / 0.58 / 0.32 / 0.56 / 0.67 | 0.53 | 2 of 18 (2.48)
MISQLYNMGTFMINSVA | QASLRNE | QQYDRLPLM | 1.02 / ND / ND / ND / ND / ND | 1.02 | 0 of 18
KVSQAQLYESRNKNSVA | QASHREQ | QQYHRLPLS | 0.12 / 0.25 / -0.12 / 0.15 / 0.32 / 0.21 | 0.15 | 1 of 18 (2.73)
KSSQSVLYESVNKNSVA | WASLRES | MQYIRLPLS | ND / ND / ND / ND / ND / ND | ND | 0 of 18
KISMLINQTFEQSNNVA | EMVTRER | QQYNRLPLS | 2.53 / 2.38 / 1.75 / 1.62 / 2.71 / 1.97 | 2.16 | 3 of 18 (2.85)
KLIQSVAMSSRTKDSIA | DNSTRES | QQYHRLPLS | 2.59 / ND / 2.83 / 2.09 / ND / 2.67 | 2.55 | 0 of 18
YAQMPFHEVGKDEQNIA | NATTRES | QQYFRLPIL | ND / ND / ND / ND / ND / ND | ND | 0 of 18
KLSMITGHLSIAKNNVA | EMETREN | QQYDRLPLS | 0.15 / 0.74 / 0.80 / 0.89 / 0.36 / 0.94 | 0.65 | 1 of 18 (2.24)
KGDQSVLYESRWKNSVA | WASTRES | QQYHCLPLS | ND / ND / ND / ND / ND / ND | ND | 1 of 18 (1.12)
GIHSQMFGTIAVKKNVA | NANTRLS | QQYSHLPLS | 0.67 / 0.80 / 1.33 / 0.79 / 0.91 / 0.90 | 0.90 | 0 of 18
KISQSVLYESRNKNSVA | EASTRES | QQISRLPLC | 0.60 / 0.11 / 0.03 / 0.41 / 0.88 / 0.38 | 0.40 | 1 of 18 (2.65)
KISMLYNYESTNKNSIA | EMTTRPA | QHYHRLPLS | ND / 1.88 / ND / 1.43 / 2.62 / ND | 1.98 | 1 of 18 (2.34)
TLSQLMDMTSRNENSVA | DLTTRGN | QQYHRLPLS | ND / ND / ND / 2.61 / ND / ND | 2.61 | 0 of 18
KSSTDMLYESRNKNSVA | SASTRES | QQYHRLPLS | 0.23 / -0.06 / 0.05 / 0.23 / 0.13 / 0.11 | 0.12 | 1 of 18 (2.69)
KLSQSVPYESRNKNSVA | EASTRES | QQYHRLPLS | 0.81 / 0.53 / 0.37 / 0.50 / 0.55 / 0.89 | 0.61 | 2 of 18 (2.61)

The first 2 entries again:

CDR-L1	CDR-L2	CDR-L3	log10 Kd, replicates	mean log10 Kd (nM)	signal with controls
KSGQHVLYESRNKNSVA	QASTRES	QQYHRLPLS	0.47 / 0.12 / -0.33 / -0.15 / -0.14 / 0.09	0.01	1 of 18 (3.40)
KVSQSVLYESRNKNSVA	YASTRES	QQYHRLPLS	0.10 / -0.05 / 0.05 / 0.12 / -0.13 / 0.44	0.09	1 of 18 (3.05)

Nonspecific signal, from three strains lacking the peptide, appeared in 4% of pairings of all light chain designs, centred on 2.64 (5% of these signals below 1.59); values are not corrected for it. The control count says in how many pairings with the empty strains this scFv gave a signal, with their mean in brackets.
The authors' rule: three or more of the six replicates give a measured affinity, fewer mean a poor binder.
The range of this assay differs from that of the first round, and the authors advise against merging the two.